Reference: patent publication US7528153B2 (dated 2009)

How the values were obtained:
[1] = biological target: lysosomal alfa-glucosidase (Homo sapiens, UniProt P10253); assay: In vitro inhibition of lysosomal alfa-glucosidase (4-MU substrate, purified enzyme from spleen); format: biochemical
intestinal sucrase = intestinal sucrase (Homo sapiens, UniProt P14410); assay: In vitro inhibition of intestinal sucrase; format: biochemical

| Structure (SMILES) | IC50 [1] | IC50 (intestinal sucrase) |
| --- | --- | --- |
| OC[C@@H]1[C@@H](O)[C@H](O)[C@@H](O)CN1CCCCCOCC12CC3CC(CC(C3)C1)C2 | 0.1 µM | 4.5 µM |
| OC[C@@H]1[C@H](O)[C@H](O)[C@H](O)CN1CCCCCOCC12CC3CC(CC(C3)C1)C2 [N-(adamantane-1-yl-methoxypentyl)-L-ido-deoxynojirimycin] | 11 µM | > 100 µM |
